Measurements reported in patent US20040063681A1, “Methods for using gold (III) complexes as anti-tumor and anti-HIV agents” (priority 2002, published 2004).

What was measured:
calf thymus DNA = test: UV-vis absorption titration with calf thymus DNA; assay type: binding; details: calf thymus DNA (0-5 μM), Tris buffer
Protocol: The calf thymus DNA was purchased from Sigma-Aldrich Chemical Co. and was purified by phenol-chloroform extraction. The DNA was dissolved in buffer (5 mM Tris, 5 mM NaCl, pH 7.2). The concentration (per base pair) of calf thymus DNA was determined spectrophotometrically on the basic of ε260, 13,200 M^−1cm^−1bp.
Absorption Titration. The binding interaction of the gold(III) porphyrins to duplex DNA has been studied by UV-vis spectroscopy.
where [ctDNA] is the concentration of DNA, Δεap═|εA−εB| in which εA=Aobs/[complex], and Δε=|εB−εF|. εB and εF correspond to the extinction coefficient of DNA-bound gold(III) porphyrin and the free gold(III) porphyrins, respectively.
The effect of temperature on the intrinsic binding constants was investigated. Using the van't Hoff equation (2): […]

[1] = Control UV-vis titration with sodium dodecyl sulfate instead of DNA; assay type: binding; details: sodium dodecyl sulfate (0-5 μM) instead of DNA
From the text: See Neidle, S. DNA structure and recognition; Oxford University Press: Oxford, 1994; 74-79.

C1=Cc2nc1c(-c1ccccc1)c1ccc([n-]1)c(-c1ccccc1)c1nc(c(-c3ccccc3)c3ccc([n-]3)c2-c2ccccc2)C=C1.[Au+3].[Cl-] [Complex 1a]
bathochromic shift of the Soret band (calf thymus DNA): 5 nm | bathochromic shift of the Q-band at 520 nm (calf thymus DNA; 2% DMSO): 6 nm | bathochromic shift [1]: 6 nm
